Assay [1] deals with mouse NNMT (Mus musculus, UniProt O55239). As to the kind of experiment: Fluorescence based NNMT enzymatic assay (mouse). The following applies: read-out: mNNMT IC50; recombinant mouse NNMT, fluorescence of an MNA derivative; tested form: HBr. The procedure: (§1) NNMT activity was measured by a fluorescence based assay as previously described. Briefly, Inhibitors were screened using human, mouse and monkey NNMT enzymes at different concentrations. The final assay reaction mixture contained a buffer of 100 mM Tris Hcl pH 7.5, 0.04% BSA, 2 mM Dithiothreitol and 1% DMSO. A fluorescent product 2, 7- naphthyridine was measured in a Tecan reader with excitation at 375 nm and emission at 430 nm. The IC50 values were determined by fitting the inhibition curves (percent inhibition versus inhibitor concentration) using a four parametric sigmoidal dose response in graph pad prism.

Amino acid sequences for entries named in this document (tags omitted).
UniProt O55239, whole entry: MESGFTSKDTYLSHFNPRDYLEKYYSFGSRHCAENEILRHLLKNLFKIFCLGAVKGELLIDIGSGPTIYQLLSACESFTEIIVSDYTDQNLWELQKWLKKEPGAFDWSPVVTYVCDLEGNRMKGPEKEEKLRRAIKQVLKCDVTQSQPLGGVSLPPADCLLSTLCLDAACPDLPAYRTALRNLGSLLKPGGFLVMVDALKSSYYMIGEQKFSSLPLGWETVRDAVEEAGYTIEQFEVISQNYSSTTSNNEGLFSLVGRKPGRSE
UniProt P40261, whole entry: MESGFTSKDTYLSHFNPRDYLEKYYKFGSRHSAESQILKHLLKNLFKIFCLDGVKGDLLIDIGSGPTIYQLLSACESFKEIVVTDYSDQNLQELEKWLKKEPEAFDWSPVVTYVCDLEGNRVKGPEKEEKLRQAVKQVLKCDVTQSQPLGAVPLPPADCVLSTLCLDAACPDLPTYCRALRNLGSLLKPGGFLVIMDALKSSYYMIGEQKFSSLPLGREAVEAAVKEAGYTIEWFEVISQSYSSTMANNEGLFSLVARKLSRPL

The target in assay [2] is human NNMT (Homo sapiens, UniProt P40261). As to the kind of experiment: Fluorescence based NNMT enzymatic assay (human). As to conditions: read-out: hNNMT IC50; recombinant human NNMT, fluorescence of an MNA derivative; tested form: HBr. As for the experimental part:
as §1

On to `CCN1Cc2cc(F)cc3c2N(CC3)C1=N`, for which the half-maximal inhibitory concentration (IC50) (usually the concentration that gives 50% inhibition) in assay [1] was greater than 3000 nM; in assay [2], 74 nM.

On to `CN1Cc2cc(F)c(F)c3c2N(CCO3)C1=N`, for which the IC50 in assay [2] is greater than 1000 nM.

The values are drawn from paper PMC9474883, “Novel tricyclic small molecule inhibitors of Nicotinamide N-methyltransferase for the treatment of metabolic disorders” (Scientific Reports, 2022).
